# Reference: US20260335456A1, “ANTIBODY-DRUG CONJUGATE HAVING CAMPTOTHECIN-BASED DRUG LINKED TO ANTIBODY HAVING LOW ANTIGEN-BINDING AFFINITY THROUGH LINKER” (PINOTBIO, INC., priority 2022, published 2026)
# What was measured:
# MDA-MB-468 tumor model = assay: In vivo efficacy in MDA-MB-468 model (EGFR ADCs); parameters: species or system mouse; conditions: FIG. 21
# [1] = test system: advanced/metastatic breast cancer; conditions: cited from earlier work
# [2] = test system: HER-2-positive advanced or metastatic breast cancer, gastric cancer or other HER-2-expressing solid tumors; conditions: 0.8 mg/kg to 8.0 mg/kg once every 3 weeks, cited from earlier work
Substance,tumor regression (MDA-MB-468 tumor model),"Grade 3 or higher adverse reactions ([1]; 5.4 mg/kg, 184 patients) [%]","constipation, any grade ([1]; 5.4 mg/kg, 184 patients) [%]","fatigue, any grade ([1]; 5.4 mg/kg, 184 patients) [%]","hair loss, any grade ([1]; 5.4 mg/kg, 184 patients) [%]","leukopenia, any grade ([1]; 5.4 mg/kg, 184 patients) [%]","neutropenia, any grade ([1]; 5.4 mg/kg, 184 patients) [%]","thrombocytopenia, any grade ([1]; 5.4 mg/kg, 184 patients) [%]",discontinuation of medication due to adverse reactions ([1]; 5.4 mg/kg) [%],dosage reduction due to adverse reactions ([1]; 5.4 mg/kg) [%],interstitial lung disease as reason for discontinuation/reduction ([1]; 5.4 mg/kg) [patients],treatment discontinuation due to adverse reactions ([1]; 5.4 mg/kg) [%],other safety risk ([1]; as with other HER-2 targeting ADCs),dose-limiting toxicities ([2]; 22 patients),MTD [2]
Cetuximab-CL2A-FL118: cetuximab ADC with CL2A-FL118 (Comparative Example 1) [reference compound],tumor regression,–,–,–,–,–,–,–,–,–,–,–,–,–,–
trastuzumab deruxtecan: humanized anti-HER2 antibody linked to deruxtecan through a stable linker,–,57.1,37.5,49.8,49.8,26.9,40.3,24.9,35.3,23.4,5,15.2,increased risk of embryo-fetal toxicity and left ventricular dysfunction,No dose-limiting toxicities were observed,not reached
